The values that follow come from patent publication US11452775B2, “Detection of arginine methylation of EGFR for prediction of resistance to therapy” (Board of Regents, The University of Texas System, priority 2013, dated 2022).

In the test the test system is EGFR. As to the kind of experiment: Flow cytometry of APC-conjugated EGF binding to EGFR in SW48 cells, with or without cetuximab. Format: cell-based. The note with it: SW48 cells expressing PRMT1. (A flow cytometer gives signals particle by particle.)

With cetuximab, the “cetuximab response (reduction of EGF binding)” value was 50%.
